Test: Clinical study: single radiolabelled topical dose to axilla or palm of healthy male subjects
Format: in vivo, human
Conditions: average; range 2- to 33.6-fold
Description: Up to four cohorts were to be enrolled (Cohort A: unoccluded axilla; Cohort B: occluded axilla; Cohort C: unoccluded palm; Cohort D: occluded palm). Six subjects were to be dosed in each cohort and complete the study procedures.
On the day of dosing, subjects will receive the study drug applied to the axilla or palm. Each subject will only receive a single dose of study drug which will be applied to the test site and remain on the application site for 8 hours. Serial blood samples will be collected throughout treatment. An interim analysis using simulations will be conducted after each cohort to determine the likelihood of exceeding the safety cover for Cmax or AUC and the likelihood of obtaining quantifiable concentrations sufficient to determine the half-life in the subsequent cohorts.

OC(c1ccccc1)(c1ccccc1)C12CC[N+](CCOCc3ccccc3)(CC1)CC2 [umeclidinium, 4-[hydroxy(diphenyl)methyl]-1-{2-[(phenylmethyl)oxy]ethyl}-1-azoniabicyclo[2.2.2]octane]
ratio of Cmax in occluded axilla to unoccluded axilla: 9.1 fold

Source: US20150037269A1, “TOPICAL COMPOSITIONS FOR TREATMENT OF EXCESSIVE SWEATING AND METHODS OF USE THEREOF” (GlaxoSmithKline Intellectual Property Development Limited, priority 2013, published 2015)
